Measurements: patent US12617790B2, “Mitragynine analogs and uses thereof” (Memorial Sloan-Kettering Cancer Center, priority 2015, dated 2026)
pKi: −log10 of the molar value.

Protein sequences, listed by entry. Tags and fused reporters are not part of them.
UniProt P42866, whole entry: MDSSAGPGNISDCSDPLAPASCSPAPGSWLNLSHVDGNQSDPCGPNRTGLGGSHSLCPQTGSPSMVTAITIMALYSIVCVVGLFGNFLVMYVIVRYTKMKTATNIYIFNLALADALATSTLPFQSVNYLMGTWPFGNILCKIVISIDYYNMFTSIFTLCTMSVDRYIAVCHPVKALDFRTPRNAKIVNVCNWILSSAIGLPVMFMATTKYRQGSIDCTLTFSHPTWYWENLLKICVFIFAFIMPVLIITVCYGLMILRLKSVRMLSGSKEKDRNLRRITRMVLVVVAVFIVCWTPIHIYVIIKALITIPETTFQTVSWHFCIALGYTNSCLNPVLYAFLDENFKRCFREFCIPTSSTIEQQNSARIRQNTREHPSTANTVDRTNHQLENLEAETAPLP
UniProt P32300, whole entry: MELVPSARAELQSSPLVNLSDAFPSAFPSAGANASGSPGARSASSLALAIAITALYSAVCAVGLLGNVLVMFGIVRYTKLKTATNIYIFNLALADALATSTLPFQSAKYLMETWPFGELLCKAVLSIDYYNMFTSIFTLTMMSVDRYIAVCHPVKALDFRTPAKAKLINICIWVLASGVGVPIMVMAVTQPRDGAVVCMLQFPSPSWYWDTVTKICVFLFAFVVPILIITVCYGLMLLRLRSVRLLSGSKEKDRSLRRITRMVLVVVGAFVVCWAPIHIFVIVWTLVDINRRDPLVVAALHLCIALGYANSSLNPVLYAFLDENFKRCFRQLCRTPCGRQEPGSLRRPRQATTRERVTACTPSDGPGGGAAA

What was measured:
MOR-1 = target: T1, MOR-1 (Mus musculus, UniProt P42866); experiment: Competition binding against 125I-IBNtxA in MOR-1/CHO membranes
T1 construct: expressed in transfected cells; host or cells: CHO

DOR-1 = target: T2, DOR-1 (Mus musculus, UniProt P32300); experiment: Competition binding against 125I-IBNtxA in DOR-1/CHO membranes; settings: 125I-IBNtxA (0.1 nM), CHO membranes, cloned mouse receptor; read-out: Affinity (Ki nM) DOR-1
T2 construct: expressed in transfected cells; host or cells: CHO

Question: What does the source list for `CC[C@@H]1CN2CCc3c([nH]c4ccccc34)[C@@H]2C[C@@H]1/C(=C\OC)C(=O)OC` [VM1540, Methyl (E)-2-((2S,3S,12bS)-3-ethyl-1,2,3,4,6,7,12,12b-octahydroindolo[2,3-a]quinolizin-2-yl)-3-methoxyacrylate]?
Answer: pKi (MOR-1): 7.24; Ki (DOR-1): 172 nM
